# Measured melting point values of organic chemicals

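These are experimental values that the OPERA curators gathered from public databases to train and test their QSAR models. A listed value is a point estimate from one report or more. Method, purity and exact conditions of the single measurements are not given. Where a salt, mixture or single isomer is drawn, the source does not say that exactly this form was tested. Some upstream entries may be estimates or bounds without being marked so.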

Melting points are in °C.

| melting point (°C) | compound |
|---|---|
| 128.8 | Cl.N=C(N)C(F)(F)C(F)(F)C(F)(F)F |
| 198 | COc1cc(NC(C)CCCN)c2ncccc2c1.O=P(O)(O)O.O=P(O)(O)O (centres undefined) |
| 173 | Cc1cc(C)c(C(N)=O)c(Cl)n1 |
| 295 | NS(=O)(=O)c1cc(C(=O)O)c(NCc2ccco2)cc1Cl |
| 115 | CCOC(=O)c1cnc(SC)nc1N |
| 203 | COc1ccc2oc(C(=O)O)c(C)c2c1 |
| 207.5 | FC(F)(F)C(F)(F)C(F)(F)C(F)(F)C(F)(F)C(F)(F)c1ccc(-c2ccc(-c3ccc(-c4ccc(C(F)(F)C(F)(F)C(F)(F)C(F)(F)C(F)(F)C(F)(F)F)s4)s3)s2)s1 |
| 125.4 | c1ccc2c(c1)ccc1c2ccc2ccc3ccccc3c21 |
| 233 | CCc1nc2ccccc2n1CC(=O)O |
| 104 | O=C(O)c1cnns1 |
| 154 | CCC1(C)NC(=O)N(N)C1=O (centres undefined) |
| 75 | c1ccc(-c2ccc3[nH]ccc3c2)cc1 |
| 175 | CC(C)c1ccccc1-n1cc[nH]c1=S |
| 118 | Cc1cccc(C(N)=O)n1 |
| 101 | NNC(=S)NC1CC1 |
| 96 | COc1ccc(NCC(=O)NN)cc1 |
| 12 | CN[C@@H]1[C@H](O[C@H]2[C@H](O[C@H]3[C@H](O)[C@@H](O)[C@H](NC(=N)N)[C@@H](O)[C@@H]3NC(=N)N)O[C@@H](C)[C@]2(O)C=O)O[C@@H](CO)[C@H](O)[C@H]1O |
| 222 | O=C(O)c1cc2c(cc1[N+](=O)[O-])OCCO2 |
| 17.9 | CCc1cc(C)c(N=C=O)c(CC)c1N=C=O |
| 157 | CN1N=C(C(=O)O)CCC1=O |
| 199 | CC(C)(C)c1ccc(C(=O)CCCN2CCC(OC(c3ccccc3)c3ccccc3)CC2)cc1.O=C(O)/C=C/C(=O)O |
| 99 | COc1ccc(NC(=O)CCl)c([N+](=O)[O-])c1 |
| 75 | COc1cc(CC(=O)O)ccc1C |
| 336 | Cc1cc(=O)n2nc(N)sc2n1 |
| 158 | CCN(CC)S(=O)(=O)c1ccc(NCCO)c(N)c1 |
| 144 | O=C(O)c1cccc(OCc2ccc(F)cc2)c1 |
| 272 | O=C1C=CC=CC1=C1NN=C2CCCCCN21 |
| 64.5 | Cc1cc(C)c(N)c(I)c1 |
| 220 | CC(C)C1OC(N)=NC1=O (centres undefined) |
| 128 | Nc1cc(F)c(F)cc1N |
| 165 | Cn1c(=O)c2ccccc2n2cc3ccccc3c12 |
| 172 | O=C(O)c1ccc(F)cc1S |
| 25.5 | Cc1cc(F)ccc1CC#N |
| 310 | S=c1nc(-c2ccncc2)[nH][nH]1 |
| 116 | CCCc1ccc(-c2csc(N)n2)cc1 |
| 95 | CC(C)(C)c1ccc(OCCC(=O)O)cc1 |
| 116 | O=C(O)c1cc(S(=O)(=O)Cl)ccc1Br |
| 118 | O=C(O)CCc1ccc(-c2ccccc2F)o1 |
| 183 | O=C(O)c1cc(Cl)c[nH]1 |
| 85 | O=[N+]([O-])c1cc(Br)ccc1I |
| 152 | O=C(O)CN1C(=O)CSc2ccccc21 |
| 149 | O=C(O)CCCc1nc2ccccc2s1 |
| 171 | Cn1cnnc1S(=O)(=O)O |
| 135 | CCOc1ccc(N2CC(C(=O)O)CC2=O)cc1 (centres undefined) |

Excerpt, the opening 7 entries:

| compound | melting point (°C) |
|---|---|
| Cl.N=C(N)C(F)(F)C(F)(F)C(F)(F)F | 128.8 |
| COc1cc(NC(C)CCCN)c2ncccc2c1.O=P(O)(O)O.O=P(O)(O)O (centres undefined) | 198 |
| Cc1cc(C)c(C(N)=O)c(Cl)n1 | 173 |
| NS(=O)(=O)c1cc(C(=O)O)c(NCc2ccco2)cc1Cl | 295 |
| CCOC(=O)c1cnc(SC)nc1N | 115 |
| COc1ccc2oc(C(=O)O)c(C)c2c1 | 203 |
| FC(F)(F)C(F)(F)C(F)(F)C(F)(F)C(F)(F)C(F)(F)c1ccc(-c2ccc(-c3ccc(-c4ccc(C(F)(F)C(F)(F)C(F)(F)C(F)(F)C(F)(F)C(F)(F)F)s4)s3)s2)s1 | 207.5 |

Source: data files of OPERA 2.9 (Mansouri et al.), github.com/kmansouri/OPERA.